The results in this text go back to patent US9249466 (AGENCY FOR SCIENCE TECHNOLOGY AND RESEARCH, dated 2016).

The test deals with T1, Myc-tagged PPP2R2B (PPP2R2B-Myc) (human, UniProt Q00005 1-443).
T1 construct: Expressed in 293T cells (transient) or in DLD1-PPP2R2B Tet-on cells (Dox-induced) and immunoprecipitated from lysates with anti-Myc tag antibody 9E10; In cells it stands within a PP2A complex with the A and C subunits; also called B55β-Myc; B55β; not shown: C-terminal myc-His tag of the vector pcDNA4/myc-hisB or pcDNA4/TO/myc-hisB
T1 sequence (looked up): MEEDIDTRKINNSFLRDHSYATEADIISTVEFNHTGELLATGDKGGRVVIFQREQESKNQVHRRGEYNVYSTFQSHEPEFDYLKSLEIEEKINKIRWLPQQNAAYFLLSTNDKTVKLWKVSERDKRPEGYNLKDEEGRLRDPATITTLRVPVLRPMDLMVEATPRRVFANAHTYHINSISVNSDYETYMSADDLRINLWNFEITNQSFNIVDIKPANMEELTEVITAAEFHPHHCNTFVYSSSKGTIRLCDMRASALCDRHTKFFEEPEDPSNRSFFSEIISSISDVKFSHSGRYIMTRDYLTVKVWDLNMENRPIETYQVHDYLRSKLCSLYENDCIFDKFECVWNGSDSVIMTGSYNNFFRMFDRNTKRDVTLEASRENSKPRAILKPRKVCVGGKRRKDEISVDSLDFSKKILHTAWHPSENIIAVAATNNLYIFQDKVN
The test can be described thus: co-immunoprecipitation from CRC cell lysates. Here is the method: FIG. 3D. Co-immunoprecipitation of PP2A scaffolding A subunit and catalytic C subunit with PPP2R2B. DLD1-PPP2R2B or vector control cells were treated with Dox and PPP2R2B was immunoprecipitated with anti-Myc tag antibody. WCL, whole cell lysates.

B1: c-Myc (other, human, UniProt P01106 16-454, looked up)
chain: MPLNVSFTNRNYDLDYDSVQPYFYCDEEENFYQQQQQSELQPPAPSEDIWKKFELLPTPPLSPSRRSGLCSPSYVAVTPFSLRGDNDGGGGSFSTADQLEMVTELLGGDMVNQSFICDPDDETFIKNIIIQDCMWSGFSAAAKLVSEKLASYQAARKDSGSPNPARGHSVCSTSSLYLQDLSAAASECIDPSVVFPYPLNDSSSPKSCASQDSSAFSPSSDSLLSSTESSPQGSPEPLVLHEETPPTTSSDSEEEQEDEEEIDVVSVEKRQAPGKRSESGSPSAGGHSKPPHSPLVLKRCHVSTHQHNYAAPPSTRKDYPAAKRVKLDSVRVLRQISNNRKCTSPRSSDTEENVKRRTHNVLERQRRNELKRSFFALRDQIPELENNEKAPKVVILKKATAYILSVQAEEQKLISEEDLLRKRREQLKHKLEQLRNSCA
Regarding B1, the binding result is given as “no binding”.
